Values quoted from earlier work in patent US11633512B2, “Method for disinfecting soils or other agricultural growing media” (Agrozono, S.L., priority 2017, dated 2023).

System: microorganisms
Conditions: compared to ozone 0.1 mg/l for 5 seconds; cited from earlier work

Which “application period necessary for disinfection” value does the source give for chlorine here?
Its value is 4 h.
